US6180664A (priority 1996, dated 2001)

Assays:
[1] = tested on: isolated rabbit aortic rings; test: vasodilating properties on isolated rabbit aortic rings; settings: 50% effective concentration EC50 given as pD2 (concentration in log M); relaxation of phenylephrine-type contraction; cumulative concentrations 1 nM to 10 μM

Row | SMILES | pD2 value [1] | solubility in acetone (solubility; acetone) | solubility in chloroform (solubility; chloroform) | solubility in hexane (solubility; hexane) | solubility in methanol (solubility; methanol) | solubility in methylene chloride (solubility; methylene chloride) | solubility in toluene (solubility; toluene) | solubility in water (solubility; water)
1 | O=[N+]([O-])OCC(CO)(CO)CO[N+](=O)[O-] | -6.6 log M | – | – | – | – | – | – | –
2 | O=C(O)C(CO[N+](=O)[O-])(CO[N+](=O)[O-])CO[N+](=O)[O-] | – | readily soluble | sparingly soluble | insoluble | readily soluble | sparingly soluble | sparingly soluble | readily soluble
